US7329650B2, “Peptides and peptide analogues designed from HFE protein and their uses in the treatment of iron overload diseases” (Bio-Rad Laboratories, Inc., priority 1998, dated 2008)

The chains behind the UniProt entries cited, without tags or fusion partners.
UniProt P02786, whole entry: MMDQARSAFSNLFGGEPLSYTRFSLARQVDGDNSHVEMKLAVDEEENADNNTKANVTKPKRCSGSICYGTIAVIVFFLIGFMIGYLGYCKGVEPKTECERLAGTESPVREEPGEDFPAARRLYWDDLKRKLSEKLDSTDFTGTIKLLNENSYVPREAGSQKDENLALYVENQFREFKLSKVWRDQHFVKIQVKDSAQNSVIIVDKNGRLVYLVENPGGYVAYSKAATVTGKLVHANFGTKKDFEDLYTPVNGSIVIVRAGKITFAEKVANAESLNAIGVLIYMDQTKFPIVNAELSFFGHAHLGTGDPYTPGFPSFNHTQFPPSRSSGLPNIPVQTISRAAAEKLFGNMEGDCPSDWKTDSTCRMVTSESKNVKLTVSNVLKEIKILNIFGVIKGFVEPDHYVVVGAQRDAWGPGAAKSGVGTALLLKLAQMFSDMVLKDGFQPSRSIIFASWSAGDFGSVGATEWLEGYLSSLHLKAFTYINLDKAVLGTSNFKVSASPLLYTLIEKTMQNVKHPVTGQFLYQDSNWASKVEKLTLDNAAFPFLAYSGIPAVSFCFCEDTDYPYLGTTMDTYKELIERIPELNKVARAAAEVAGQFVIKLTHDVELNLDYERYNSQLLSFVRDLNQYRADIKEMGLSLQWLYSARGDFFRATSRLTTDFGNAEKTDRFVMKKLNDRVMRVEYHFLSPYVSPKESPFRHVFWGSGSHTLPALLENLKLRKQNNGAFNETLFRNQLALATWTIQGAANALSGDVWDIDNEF

Molecular target: T1, transferrin receptor (TfR) (Homo sapiens, UniProt P02786)
T1 construct: endogenous in cells; host or cells: HeLa cells
Experiment: Measurement of cell-associated transferrin (labeled transferrin binding to HeLa cells, Scatchard analysis)
Conditions: for effect on TfR affinity for transferrin (in words): HeLa cells, peptide 50 μM or soluble HFE/β2m 100 nM alone
Procedure: The peptides were solubilized in 0.1N HCl at a concentration of 1 mM for 30 min. at room temperature and stored at 4° C. An aliquot of this solution was diluted with DME plus mg/ml BSA to a concentration of 50 μM and neutralized with 1 M Hepes pH 7.5 to a final concentration of 25 mM Hepes.
HeLa cells were grown to 80-90% confluence at 37° C. at 5% CO2. The cells were washed twice with PBS and detached from the plates using 4 mM EDTA/PBS. The cells were counted and diluted to 5×10^6 cells per ml in DMEM 1% fetal bovine serum (GIBCO) and 5×10^5 suspended cells were used for the TfR binding assay. Binding assays were all done in duplicate. Nonspecific binding was determined. The peptide/media solution was added to the cells in a final volume of 200 μl for 30 min. at 37 ° C. Labeled transferrin (New England Nuclear) was added to the cells at concentrations ranging from 0.5-15 nM. The reaction volume was 500 μL. Incubations were carried out for 20 min. for experiments performed at 37° C., or 90 min on ice for experiments performed at 4° C. At the end of the incubation, the cells were pelleted at 3,000 rpm for 2 min. The supernatant was decanted and radioactivity counted. […] After the final wash, the cells were resuspended in PBS and bound radioactivity was counted. The amount of transferrin bound to the cells was calculated by dividing the cpm bound to the cells by the cpm counted in the supernatant, this ratio was converted to a molar value by multiplying by the amount of transferrin used in the experiment. The Kcell association and the apparent KD were calculated from the negative slope of the line generated by Scatchard analysis or by analyzing the binding curves utilizing nonlinear regression; both methods yielded essentially the same results.
To determine the amount of nonspecific transferrin binding, cells were simultaneously incubated under the same conditions but in the presence of 100× the molar concentration of cold holo-transferrin (Sigma). After 20 min (37° C.), the media was removed and counted in a Beckman 9600 scintillation counter. […]

## soluble HFE/β2m heterodimers: soluble heterodimers of HFE protein and β2-microglobulin, used at 100 nM as positive comparator
FIG. 1 experiment, peptide 50 μM or soluble HFE/β2m 100 nM
  increase of KD of TfR for transferrin versus HeLa cells alone: approximately 2 fold
FIG. 2 experiment
  effect on TfR affinity for transferrin (in words): characteristic increase in KD
FIG. 3 experiment
  effect on TfR affinity for transferrin (in words): significant increase in KD
